From ChEMBL document CHEMBL1955801, “Synthesis, biological evaluation and molecular investigation of fluorinated peroxisome proliferator-activated receptors α/γ dual agonists” (Bioorg Med Chem, 2012)
The source made the active and inactive calls. The rule behind the calls is not given here.

Target: T1, Peroxisome proliferator-activated receptor alpha (Homo sapiens) (UniProt Q07869)
T1 sequence (whole entry): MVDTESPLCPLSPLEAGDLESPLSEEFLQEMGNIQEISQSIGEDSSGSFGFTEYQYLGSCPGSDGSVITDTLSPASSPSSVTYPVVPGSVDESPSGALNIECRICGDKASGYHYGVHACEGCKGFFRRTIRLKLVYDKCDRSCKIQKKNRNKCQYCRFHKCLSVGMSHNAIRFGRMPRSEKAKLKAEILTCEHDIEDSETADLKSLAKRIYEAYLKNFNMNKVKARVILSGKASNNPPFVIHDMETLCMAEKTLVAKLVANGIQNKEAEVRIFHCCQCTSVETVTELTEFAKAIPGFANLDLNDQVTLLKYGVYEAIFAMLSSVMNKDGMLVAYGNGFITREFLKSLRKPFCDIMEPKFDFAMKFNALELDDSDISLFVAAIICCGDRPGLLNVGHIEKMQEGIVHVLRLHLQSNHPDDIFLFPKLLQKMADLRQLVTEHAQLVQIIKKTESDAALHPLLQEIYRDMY
Details: HepG2, 5 to 10 uM

SMILES: O=C(O)C(Cc1ccccc1)Oc1ccccc1C(F)(F)F (racemic)
- Emax: inactive

SMILES: O=C(O)C(Cc1cccc(F)c1)Oc1ccccc1C(F)(F)F (racemic)
- Emax: inactive
